UUG fidelity = modulators of yeast start codon fidelity, primary screen, whole organism, S. cerevisiae, single point, plate reader; activity score, % at 18.7 µM; actives 0.13% (n = 350,000); S. cerevisiae UUG-firefly luciferase reporter, luminescence/redox ratio;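 active = replicate mean at a twofold rise or more, about +100% in these data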;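 also: firefly luciferase made from a UUG start codon reports start codon fidelity; reporter light over untreated wells divided by growth signal over untreated wells; some hits fall short of that in this replicate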
ARNT TACC3 PPI = disruptors of ARNT/TACC3 protein interaction, primary screen, biochemical, AlphaScreen, single concentration | Transforming acidic coiled-coil-containing protein 3 (Homo sapiens), Q9Y6A5 | AlphaScreen His-ARNT PAS-B/GST-TACC3 binding, luminescence; TACC3 fragment carries E629A point mutation | inhibition, % at 9.99 µM | actives 0.66% (n = 390,000) | AID 623870, 2012;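 active = mean inhibition of replicates at least 50% and at least half of replicates each reaching 50%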
CAL PDZ FP-1 = CAL PDZ peptide-binding inhibitors, primary screen, biochemical, fluorescence polarization, Cer-tagged CAL PDZ, HTS; actives 0.02% (n = 330,000); inhibition, % at 20 µM; purified CAL PDZ, TMR-peptide fluorescence polarization, 1 h; AID 504414, 2011;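 active = highest replicate inhibition of at least 40%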
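System: tagged CAL PDZ domain. Schedule: 1 h room-temperature incubation prior to read. Signal: fluorescence polarization (mP). Measure: percent inhibition from loss of millipolarization.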
CAL PDZ FP-2 = untagged CAL PDZ binding inhibitors, primary screen, biochemical, fluorescence polarization, HTS | Golgi-associated PDZ and coiled-coil motif-containing protein (Homo sapiens), Q9HD26 | purified CAL PDZ, TMR-peptide fluorescence polarization, 1 h | inhibition, % at 24.9 µM | actives 0.92% (n = 300,000) | AID 602252, 2012;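 active = mean inhibition of at least 30% with at least half of replicates also reaching 30%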
PglD DTNB = C. jejuni PglD acetyltransferase inhibitors, primary screen, biochemical, DTNB colorimetric, single point. purified PglD enzyme, DTNB colorimetric CoA detection. inhibition, % at 12.5 µM. actives 0.098% (n = 360,000); in the data active = inhibition above about 16%, passing the limit was not always enough
Vif inh = HIV Vif self-association inhibitors, primary screen, imaging, HEK293T, single point; HEK293T cells, Vif self-association by quenched fluorescence, 24 h; inhibition, % at 7.49 µM; AID 602346, 2012; actives 0.35% (n = 340,000); in the data active = inhibition above about 50%, passing the limit was not always enough
Large screens that a line does not name were inactive. An excerpt weighted towards active compounds, which were near 1.6% of everything screened.

CC=Cc1ccc2n(c1=O)C[C@H]1[C@H](CO)[C@@H](C(=O)NCC3CC3)N(CCC(F)(F)F)[C@@H]21 (mixture of isomers)	none (no result: UUG fidelity, CAL PDZ FP-1, CAL PDZ FP-2, Vif inh)
CCOC(=O)CNC(=O)CSc1nnc(Cn2cnc3ccccc32)n1C	CAL PDZ FP-2 active
CCCCCCOC(=O)C(C#N)c1nc2ccccc2nc1N1CCOCC1 (stereo not drawn)	Vif inh 182 (no result: CAL PDZ FP-2)
N#CC(C(=O)NCCc1ccccc1)c1nc2ccccc2nc1N1CCOCC1 (stereo not drawn)	Vif inh 64
CCCCOC(=O)C(C#N)c1nc2ccccc2nc1N1CCOCC1 (stereo not drawn)	none
N#CC(C(=O)NCCc1ccccc1)c1nc2ccccc2nc1N1CCCCC1 (stereo not drawn)	none
C[C@H](CO)N1C[C@H](C)[C@@H](CN(C)S(=O)(=O)c2ccccc2)Oc2ccc(NC(=O)CCN3CCOCC3)cc2CC1=O	none (no result: CAL PDZ FP-1, CAL PDZ FP-2, Vif inh)
CO[C@@H]1CN(C)C(=O)c2ccc(NS(=O)(=O)c3ccccc3C)cc2OC[C@@H](C)NC[C@@H]1C	none (no result: CAL PDZ FP-1, CAL PDZ FP-2, Vif inh)
CCOC(=O)C(Cc1ccccc1)C(=O)Nc1nccs1 (stereo not drawn)	none
CCOC(=O)C(Cc1ccccc1)c1ccnc2ncnn12 (stereo not drawn)	CAL PDZ FP-2 34 (no result: UUG fidelity, PglD DTNB)
COC(=O)c1nn(-c2ccccc2)c(-c2ccccc2)c1C(=O)c1ccccc1	Vif inh 50 (no result: CAL PDZ FP-2)
C[C@@H]1CN([C@H](C)CO)C(=O)Cc2cc(NC(=O)C3CC3)ccc2O[C@@H]1CN(C)S(=O)(=O)c1ccccc1	none (no result: CAL PDZ FP-1, CAL PDZ FP-2, Vif inh)
O=C(NC1Cc2ccccc2C1)[C@@H]1[C@@H](CO)[C@@H]2Cn3c(cccc3=O)[C@@H]2N1C(=O)c1ccccn1	none (no result: UUG fidelity, CAL PDZ FP-1, CAL PDZ FP-2, Vif inh)
CCOC(=O)c1cc(C)n(-c2c(C)n(C)n(-c3ccccc3)c2=O)c1C	none
CCCCC(=O)OCC(=O)c1cc(C)n(-c2c(C)n(C)n(-c3ccccc3)c2=O)c1C	Vif inh 50 (no result: UUG fidelity, PglD DTNB)
C=CCCCCCCCCC(=O)NNC1CC(=O)N(c2ccccc2)C1=O (stereo not drawn)	CAL PDZ FP-2 49
CCCCCC(=O)NNC1CC(=O)N(c2ccccc2)C1=O (stereo not drawn)	none (no result: ARNT TACC3 PPI, CAL PDZ FP-1, CAL PDZ FP-2)
O=C(NCCCn1ccnc1)/C(=C/c1ccccc1)NC(=O)c1ccccc1	none (no result: UUG fidelity, PglD DTNB)
CN(C)c1ccc(/C=C(\NC(=O)c2ccccc2)C(=O)NCCCn2ccnc2)cc1	ARNT TACC3 PPI 54
Cc1ccc(C(=O)N/C(=C/c2ccco2)C(=O)NCCCn2ccnc2)cc1	ARNT TACC3 PPI 49
Cc1ccc(C(=O)N/C(=C/c2ccccc2F)C(=O)NCCCn2ccnc2)cc1	none
Cc1ccc(C(=O)N/C(=C\c2ccco2)C(=O)NCCCn2ccnc2)cc1	ARNT TACC3 PPI 98
O=C(NCCCn1ccnc1)/C(=C/c1ccco1)NC(=O)c1ccccc1	none (no result: Vif inh)
COc1ccc(/C=C(\NC(=O)c2ccc(C)cc2)C(=O)NCCCn2ccnc2)cc1OC	ARNT TACC3 PPI 54
CCCNC(=O)C[C@@H]1CC[C@H]2[C@@H](COC[C@@H](O)CN2C(=O)C2CCOCC2)O1	none (no result: CAL PDZ FP-1, CAL PDZ FP-2, Vif inh)
C[C@H](CO)N1C[C@H](C)[C@H](CN(C)S(=O)(=O)c2ccc(Oc3ccccc3)cc2)OCc2cnnn2CCCC1=O	none (no result: ARNT TACC3 PPI, CAL PDZ FP-1, CAL PDZ FP-2, Vif inh)
COc1cccc(-c2ccc3c(c2)[C@@H]2[C@@H](CCN2C(=O)Nc2ccccc2OC)[C@@H](CO)N3C)c1	none (no result: CAL PDZ FP-1, CAL PDZ FP-2, Vif inh)
O=C(NCCc1cnc[nH]1)Nc1cccc(C(F)(F)F)c1	ARNT TACC3 PPI 49 (no result: CAL PDZ FP-2)
O=C(N/N=C(\c1ccccc1)c1cccnc1)c1cccc(F)c1	ARNT TACC3 PPI 57
COc1ccc(S(=O)(=O)N(C)C[C@@H]2Oc3ccc(NS(=O)(=O)c4c(C)noc4C)cc3C(=O)N([C@@H](C)CO)C[C@H]2C)cc1	none (no result: ARNT TACC3 PPI, CAL PDZ FP-1, CAL PDZ FP-2, Vif inh)
CCc1ccc(CN(C)Cc2nc(Cc3cccc(C(F)(F)F)c3)no2)nc1	none (no result: UUG fidelity, PglD DTNB)
CN(Cc1cnccn1)Cc1nc(Cc2ccccc2F)no1	CAL PDZ FP-2 56
CN(Cc1cnccn1)Cc1nc(Cc2ccccc2Cl)no1	none (no result: UUG fidelity, PglD DTNB)
CCc1ccc(CN(C)Cc2nc(COc3ccccc3)no2)nc1	CAL PDZ FP-2 49 (no result: UUG fidelity, PglD DTNB)
C[C@H](CO)N1C[C@H](C)[C@H](CN(C)C(=O)c2ccccc2F)Oc2ncc(-c3cncnc3)cc2C1=O	none (no result: CAL PDZ FP-1, CAL PDZ FP-2, Vif inh)
COc1ccc(NC(=O)CN(C)C(=O)Cc2n[nH]c(=O)c3ccccc23)cc1	CAL PDZ FP-2 31
COc1ccc(NS(=O)(=O)c2cc(NC(=O)Cc3n[nH]c(=O)c4ccccc34)ccc2OC)cc1	CAL PDZ FP-2 51
C/C(=N\NC(=O)CNc1cccc2ccccc12)c1ccccc1	CAL PDZ FP-2 31 (no result: UUG fidelity, PglD DTNB, Vif inh)
Cc1ccc(NC(=O)CN2CCCC2c2cccn2C)c(Br)c1 (stereo not drawn)	CAL PDZ FP-2 39
O=C(COc1ccc(Br)cc1)OCC(=O)N1CCOCC1	none (no result: CAL PDZ FP-2, PglD DTNB)
O=C(COc1ccc2cc(Br)ccc2c1)N1CCOCC1	CAL PDZ FP-2 103 (no result: ARNT TACC3 PPI)
O=C(COc1ccc(S(=O)(=O)Nc2ccc(Cl)cc2)cc1)N1CCOCC1	CAL PDZ FP-2 100
COc1ccc(NS(=O)(=O)c2ccc(OCC(=O)N3CCOCC3)cc2)cc1	none
O=C1NC(=S)NC1=Cc1ccco1	ARNT TACC3 PPI 60 (no result: CAL PDZ FP-2)
O=S(=O)(c1ccccc1)c1nc(-c2ccco2)oc1N1CCCCC1	CAL PDZ FP-2 42
O=C(Cc1cccnc1)N1[C@H](CO)[C@H]2c3ccccc3NC[C@H]21	none (no result: CAL PDZ FP-1, CAL PDZ FP-2, Vif inh)
CN(C)C(=O)[C@H]1[C@H](CO)[C@H]2Cn3c(ccc(-c4ccncc4)c3=O)[C@H]2N1Cc1ccccc1	none (no result: UUG fidelity, CAL PDZ FP-1, CAL PDZ FP-2, Vif inh)
O=C(NCC[C@@H]1CC[C@@H](NC(=O)C2CCC2)[C@H](CO)O1)c1cc(Cl)cc(Cl)c1	none (no result: CAL PDZ FP-1, CAL PDZ FP-2, Vif inh)
Oc1[nH]c2ccccc2c1N=Nc1nncc2ccccc12	CAL PDZ FP-2 52
O=C(C[C@H]1C[C@@H]2c3cc(NC(=O)Nc4ccc(F)cc4)ccc3O[C@@H]2[C@H](CO)O1)NCC1CC1	none (no result: CAL PDZ FP-1, CAL PDZ FP-2, Vif inh)
Cc1nnc(Nc2ccccn2)c2ccccc12	ARNT TACC3 PPI 33 (no result: UUG fidelity, PglD DTNB)
COc1ccc(CNC(=O)C[C@@H]2CC[C@H](NC(=O)c3ccc4c(c3)OCO4)[C@@H](CO)O2)cc1	none (no result: CAL PDZ FP-1, CAL PDZ FP-2, Vif inh)
CN1CCN(C(=O)C[C@H]2CC[C@H]3[C@@H](COC[C@@H](O)CN3Cc3ccc4c(c3)OCO4)O2)CC1	none (no result: CAL PDZ FP-1, CAL PDZ FP-2, Vif inh)
CN1C(=S)SC(/[N+]([O-])=C/c2cccnc2)C1(C)C (stereo not drawn)	CAL PDZ FP-2 31 (no result: CAL PDZ FP-1)

From PubChem BioAssay
